Test results as given in article PMC2813939 (Neuropsychopharmacology : official publication of the …, 2009).
Values joined by “and” are separate entries in the source; they are usually repeats but may differ in a detail not shown here. Equal values may be shown once. Read-outs that look alike come from different tables or passages of the source.

Sequences of proteins named here, by UniProt entry; tags and fusion partners are left off. A change or cut given only in a name is not applied to a line headed by its entry. Residues count along the entry.
UniProt P14416, 1-414 isoform P14416-2: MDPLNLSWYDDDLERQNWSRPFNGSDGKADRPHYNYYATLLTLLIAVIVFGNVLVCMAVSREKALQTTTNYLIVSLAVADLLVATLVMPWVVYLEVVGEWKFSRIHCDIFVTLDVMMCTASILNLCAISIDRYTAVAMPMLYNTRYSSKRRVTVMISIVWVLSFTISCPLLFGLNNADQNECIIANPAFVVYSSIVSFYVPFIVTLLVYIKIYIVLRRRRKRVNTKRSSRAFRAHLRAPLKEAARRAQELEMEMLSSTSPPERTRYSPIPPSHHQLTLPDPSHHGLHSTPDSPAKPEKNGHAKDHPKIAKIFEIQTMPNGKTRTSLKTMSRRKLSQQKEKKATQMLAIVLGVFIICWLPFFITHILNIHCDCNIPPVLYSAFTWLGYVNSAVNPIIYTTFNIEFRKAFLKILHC

Legend:
Test in all cases: cell-based
[1] = target: T1, human D2 receptor (short isoform, D2S) (Homo sapiens, UniProt P14416); format: binding
[2] = target: T1, human D2 receptor (short isoform, D2S)
[3] = target: T1, human D2 receptor (short isoform, D2S); remark: listed apart in the source

Ki [2] | Kd ([1]; KD) | Ki ([3]; Internalized D2 receptor (Q+/MTSET+) KI(i)) | Ki ([3]; Surface D2 receptor (Q-/MTSET-) KI(s)) | SMILES | Bmax [1]
 |  |  |  | CN1CN(c2ccccc2)C2(CCN(CCCC(=O)c3ccc(F)cc3)CC2)C1=O [NMSP, N-methylspiperone] | 37.75 pmol/10^5 cells and 19.35 pmol/10^5 cells
260 pM and 280 pM | 1200 pM and 500 pM | 1000 ± 350 pM | 500 ± 80 pM | CCN1CCC[C@H]1CNC(=O)c1c(O)c(Cl)cc(Cl)c1OC [Raclopride] | 
